Measured values reported in PubChem BioAssay AID602449 (Sanford-Burnham Center for Chemical Genomics, 2012).
The entries are a selection whose mix differs from that of the whole data set. Active and inactive are the calls of the source.

Test: mitochondrial permeability transition pore inhibitors, primary screen, biochemical, isolated mouse mitochondria, absorbance (AID 602449);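 also: 0% = DMSO wells given calcium and 100% = 1 mM EGTA wells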
Settings: Ca2+ swelling absorbance, 30 min, at 10 µM, stronger effect = higher value

Compound	inhibition
CCC(=O)N(c1ccccc1)C1(COC)CCN(CCn2nnn(CC)c2=O)CC1	inactive: -0.9%
CCC(=O)N(c1ccccc1)C1(COC)CCN(CCc2cccs2)CC1	inactive: -0.6%
